From PubChem BioAssay AID824 (SRMLSC, 2007)
This is a selection; strong and weak results do not stand in their true shares. Inconclusive results are not listed. The source made the active and inactive calls.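 The calls were made as follows: active = viability at or below 27.92% in each of two runs, the all-compound median minus 4 SD; inconclusive = no clear call, values can overlap the other calls; inactive = the rest.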

Experiment: viability of PTEN-null HCT116 cells – cell-based, HCT116 clonal line, CellTiter-Glo, pilot screen (AID 824);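 also: 0% = 20 µM Hyamine control and 100% = vehicle cell control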
Details: HCT116 PTEN-deleted viability, 60 h, at 10 µM, active compounds read low

| SMILES | viability |
| --- | --- |
| Fc1ccccc1NC1CCN(Cc2ccccc2)CC1 | inactive: 88.7% |
